# B1: miRNA against GPD1: miRNA against GPD1, expression induced by Tamoxifen in tumor-bearing mice; preferably nucleotide sequence of SEQ ID NO:1 (nucleic acid)
# chain: GAAAGTTGGGTGTCCTGCATCAGGTTTTGGCCACTGACTGACCTGATGCACACCCAACTTT
# modifications: MiRNA sequence for GPD1- knockdown
# Tested on: GPD1
# Assay: Inducible knockdown of GPD1 in primary brain tumors, survival study
# Type: in vivo, mouse
# Conditions: primary brain tumors induced at birth, miRNA expression induced by Tamoxifen QDx10 at four weeks, versus WT tumor
# Experimental: Survival study of tumor-bearing mice w/o GPD1-KD. The tumors were induced at birth. At the age of four weeks tamoxifen was injected for ten days to permanently activate the GPD1 miRNA and the symptom free time was measured.
# Animals with existing primary brain tumors were treated with Tamoxifen (QDx10) to induce the expression of a miRNA against GPD1.
molecule,measurement,setting,value
B1,survival (symptom free time) of tumor-bearing mice with GPD1 knockdown,,significant increase in survival
same,survival (symptom free time) of tumor-bearing mice with GPD1 knockdown,listed as GPD1 miRNA,survived significantly longer

# Source: US20190276833A1, “CANCER TREATMENT BY GLYCEROL-3-PHOSPHATE DEHYDROGENASE 1 INHIBITION” (Deutsches Krebsforschungszentrum, priority 2016, published 2019)
